Test system: newly-ecdysed fifth instar larvae of G. pyloalis
Experiment: Leaf dip bioassay
Format: in vivo, Glyphodes pyloalis Walker
Details: 0.25 ppm, 48 h after treatment
Protocol: The insects used in the present application is Glyphodes pyloalis Walker (Lepidoptera: Pyralidae) which was collected from infested mulberry orchards in the vicinity of Rasht, Iran. Mass rearing of insects was carried out in the laboratory under controlled conditions at 25±1° C., 70±5% RH and 16:8 L:D. Newly-ecdysed fifth instar larvae of G. pyloalis were used for the bioassay experiments. The Glyphodes pyloalis Walker hereinafter is referred to as G. pyloalis.
The toxicity of the encapsulated imidacloprid diluted in water for the newly-ecdysed fifth instar larvae of G. pyloalis was evaluated using leaf dip bioassay. The technical imidacloprid was dissolved in acetone and diluted to generate 6 serial dilutions with distilled water. Mulberry leaf discs with diameters of 3.5 cm were prepared, so that each petiole was placed in a vial containing water for providing moisture to the leaf discs for several days. These discs were then immersed in the dilutions for 45 seconds. Mortality was assessed after the treated larvae were maintained at 25±1° C., 70±10 R.H. for 24, 48, 72, 96 and 120 hours.

`COC(=O)N(C(=O)N1CO[C@@]2(C(=O)OC)Cc3cc(Cl)ccc3C2=N1)c1ccc(OC(F)(F)F)cc1` [Indoxacarb, lndoxacarb] was tested, and the “% mortality” value was 26.61 ± 7.99^gf %.

Reference: patent US20160000071A1, “PHOTODEGRADABLE, BIOCOMPATIBLE AND EFFICIENT NANO-ENCAPSULATED FORMULATION” (priority 2014, published 2016)
